# From ChEMBL document CHEMBL1127487, “Cyclic enkephalin analogs with exceptional potency at peripheral delta opioid receptors” (J Med Chem, 1994)
# The chains behind the UniProt entries cited, without tags or fusion partners.
# UniProt P32300, whole entry: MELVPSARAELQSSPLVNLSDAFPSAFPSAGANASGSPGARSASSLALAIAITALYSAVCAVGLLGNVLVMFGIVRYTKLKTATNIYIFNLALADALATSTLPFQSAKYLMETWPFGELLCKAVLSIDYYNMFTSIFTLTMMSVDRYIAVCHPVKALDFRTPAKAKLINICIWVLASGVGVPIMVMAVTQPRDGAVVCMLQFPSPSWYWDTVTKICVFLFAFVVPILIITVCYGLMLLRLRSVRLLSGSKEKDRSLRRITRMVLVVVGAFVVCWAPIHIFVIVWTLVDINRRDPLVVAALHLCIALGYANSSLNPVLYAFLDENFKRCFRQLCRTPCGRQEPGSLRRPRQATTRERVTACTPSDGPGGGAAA
# Target: Delta-type opioid receptor (Mus musculus, UniProt P32300)
# Experiment: Inhibitory concentration against delta opioid receptor of electrically induced smooth muscle contraction of mouse vas deferens
# Type: functional
smiles,measurement,value
CC(C)[C@H](NC(=O)[C@H](CC(=O)O)NC(=O)[C@H](Cc1ccccc1)NC(=O)[C@@H](C)NC(=O)[C@@H](N)Cc1ccc(O)cc1)C(=O)N[C@H](C(=O)NCC(N)=O)C(C)C [DELTORPHIN C],IC50,0.16 nM
